How the values were obtained:
Experiment in all cases: fluorescence polarisation; FITC-tagged peptide ('2 nm' [sic]) with importin two-fold serially diluted from 4.5 µM across 23 wells, 200 µl, GST Buffer A (50 mM Tris, 125 mM NaCl); three independent experiments
[1] = target: AAV 09YN Cap-BR-mMAJOR (FITC labelled peptide, residues 117-167, major site mutant)
[2] = target: AAV 09YN Cap-BR-mMINOR+mMAJOR (FITC labelled peptide, residues 117-167, minor and major site mutant)
[3] = target: AAV 09YN Cap-BR-mMINOR (FITC labelled peptide, residues 117-167, minor site mutant)

Substance: Mouse importin α2 lacking the IBB domain (mImpα2DIBB) (from UniProt P52293 70-529) (domain or fragment)
- Kd [1]: 0.886 µM
- Kd [2]: 8.25 µM
- Kd [3]: 1.61 µM
